The source of these data is PubChem BioAssay AID2825 (Sanford-Burnham Center for Chemical Genomics, 2010).

This is a selection; strong and weak results do not stand in their true shares. Calls of active or inactive are those of the source.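 Rule for the calls: active = inhibition of 50% or more; inactive = inhibition below 50%.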

This assay can be described thus: blockers of yeast NLRP3/ASC/caspase-1 reporter – luminescence, uHTS, primary screen (AID 2825).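 Note: plate controls were induced DMSO wells for no effect and uninduced yeast grown without galactose for full effect.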 The conditions noted are these: Yeast reconstituted NLRP3/ASC/caspase-1, beta-gal luminescence, 24 h; at 10 µM; hits give high values.
For the molecule `CCOc1ncccc1C(=O)NCC1(N2CCOCC2)CCCCC1`, the inhibition (commonly the relative decrease from the control value, in per cent) is inactive: 9.26%.
On to `CN1CCC(Nc2ccc(F)c(Cl)c2)CC1`, for which the inhibition is inactive: 12.3%.
Turning to `CC(C)(C)OC(=O)N1CCC(Nc2ccccc2)CC1`, the inhibition was active: 51.6%.
As for `O=C(O)C1(Nc2ccccc2)CCN(Cc2ccccc2)CC1`, the inhibition is inactive: 20.4%.
On to `CCCOc1ccc(C(=O)NCC2(N(C)C)CCCCC2)cc1`, for which the inhibition is inactive: 8.23%.
As to `COc1cc(OC)cc(C(=O)NCC2(N3CCOCC3)CCCCC2)c1`, the inhibition is inactive: 12.3%.
For `COc1cccc(C(=O)N(c2cc(C)cc(C)c2)C2CCN(C(=O)OC(C)(C)C)CC2)c1` the value was inactive: -6.28%; for `CCC(CO)(C(=O)OC1CN2CCC1CC2)c1ccccc1` (configuration not stated), inactive: 12.3%; for `CN1CCC(Nc2ccc(Cl)cc2)CC1`, inactive: 19.8%.
Take `CCCOc1ccc(C)cc1CN(CCCl)CCCl`: the inhibition was inactive: 3.01%.
`COc1cc(OC)cc(C(=O)NCC2(N3CCCCC3)CCCCC2)c1`: the inhibition is inactive: 2.65%.
Take `Cc1ccc(C(=O)NCC2(N3CCCCC3)CCCCC2)o1`: the inhibition was inactive: -4.39%.
On to `Fc1ccccc1NC1CCN(Cc2ccccc2)CC1`, for which the inhibition is inactive: -4%.
For `CCN1CCC(Nc2cccc(F)c2)CC1`, the inhibition was inactive: 14.8%.
Turning to `O=C(NCC1(N2CCCCC2)CCCCC1)c1ccco1`, the inhibition is inactive: 3.54%.
As for `CN(C)c1ccc(C(=O)NCC2(N3CCCCC3)CCCCC2)cc1`, the inhibition was inactive: 3.42%.
As to `N#Cc1ccc(C(=O)NCC2(N3CCCCC3)CCCCC2)cc1`, the inhibition was inactive: 2.01%.
For the molecule `CC(C)(C)OC(=O)N1CCC(N(C(=O)c2ccccc2)c2ccc(Cl)cc2)CC1`, the inhibition is inactive: 17.2%.
As to `CN(C)C1(CNC(=O)c2cccc(C#N)c2)CCCCC1`, the inhibition is inactive: 8.37%.
For `c1ccc(CN2CCC(Nc3ccccc3)CC2)cc1`, the inhibition was inactive: 15.6%.
For `CCCN1CCC(Nc2cc(OC)cc(OC)c2)CC1`, the inhibition was inactive: 14.3%.
As for `COc1cc(C(=O)NCC2(N3CCOCC3)CCCCC2)cc(OC)c1C`, the inhibition is inactive: -2.5%.
Take `O=C(NCC1(N2CCOCC2)CCCCC1)c1cc(Br)ccc1Cl`: the inhibition is inactive: -0.17%.
For `COc1ccc(C(=O)NCC2(N3CCOCC3)CCCCC2)cc1OC` the value was inactive: -0.511%; for `CCOC(=O)N1CCC(Nc2ccc(C)cc2)CC1`, inactive: 7.15%; for `N/C(=N\O)c1c(N)no[n+]1[O-]`, inactive: 15.8%.
Next, `O=C(OC1CN2CCC1CC2)C1c2ccccc2C=Cc2ccccc21` (configuration not stated): inactive: 8.07%; `CCc1cc(C(=O)NCC2(N3CCCCC3)CCCCC2)sc1C`: inactive: 17.9%; `CC(C)c1ccc(NC2CCN(C(=O)OC(C)(C)C)CC2)cc1`: inactive: 25%.
As for `COc1ccc(CN(CCCl)CCCl)cc1Cl`, the inhibition was inactive: 9.96%.
In the case of `CN(C)c1cccc(C(=O)NCC2(N3CCCCC3)CCCCC2)c1`, the inhibition is inactive: 0.965%.
For `COc1cc(OC)c(C(=O)NCC2(N(C)C)CCCCC2)cc1OC`, the inhibition is inactive: 15.8%.
With `O=C(NCC1(N2CCOCC2)CCCCC1)c1cc(F)c(F)cc1Cl`, the inhibition is inactive: -4.85%.
Next, `O=C(NCC1(N2CCCCC2)CCCCC1)c1cncc(Br)c1`: inactive: -10.7%; `CN1CCC(Nc2cccc(F)c2)CC1`: inactive: -12%; `O=C(NCC1(N2CCCCC2)CCCCC1)c1ccc(OC(F)F)cc1`: inactive: 15.1%.
On to `CCN1CCC(Nc2ccc(Cl)cc2)CC1`, for which the inhibition was inactive: 18.1%.
For `N#CC1(Nc2ccccc2)CCN(CCc2ccccc2)CC1`, the inhibition was inactive: -6.42%.
Regarding `CSc1ccc(C(=O)NCC2(N3CCOCC3)CCCCC2)cc1`, the inhibition was inactive: 16%.
Consider `O=C(NCC1(N2CCCCC2)CCCCC1)c1cccc([N+](=O)[O-])c1`, for which the inhibition was inactive: 17.1%.
Turning to `O=C(NCC1(N2CCCCC2)CCCCC1)c1cccc(C(F)(F)F)c1`, the inhibition was inactive: 2.66%.
As for `COc1cc(C(=O)NCC2(N3CCCCC3)CCCCC2)ccc1OC(F)F`, the inhibition is inactive: 21.3%.
For `O=C(NCC1(N2CCOCC2)CCCCC1)c1cc(=O)[nH]c2ccccc12`, the inhibition is inactive: 14.5%.
For `CN1CCN(CCOC(=O)C(O)(c2ccccc2)c2ccccc2)CC1` the value was inactive: 12.9%; for `COc1ccc(NC2CCN(C(=O)OC(C)(C)C)CC2)cc1`, inactive: 20%.
In the case of `CC(C)c1ccc(C(=O)NCC2(N3CCOCC3)CCCCC2)cc1`, the inhibition is inactive: 13%.
On to `CCOc1ccc(C)cc1CN(CCCl)CCCl`, for which the inhibition was inactive: -3.56%.
Regarding `O=C(NCC1(N2CCCCC2)CCCCC1)c1ccc(F)cc1`, the inhibition is inactive: 15.4%.
Regarding `CCCCOc1ccc(C(=O)NCC2(N3CCOCC3)CCCCC2)cc1`, the inhibition was inactive: 12.2%.
With `COc1ccc(NC2CCN(CCc3ccccc3)CC2)c(OC)c1`, the inhibition was inactive: 6.9%.
Next, `CCOC(=O)N1CCC(Nc2ccc(F)cc2)CC1`: inactive: 29.9%; `CCOC(=O)N1CCC(Nc2cccc(C)c2)CC1`: inactive: 27.6%.
In the case of `Cc1ccc(OCC(C)C)c(CN(CCCl)CCCl)c1`, the inhibition is inactive: -11.6%.
Consider `COc1ccc(C(=O)NCC2(N3CCCCC3)CCCCC2)cc1`, for which the inhibition was inactive: 7.69%.
Turning to `COc1ccc(C(=O)NCC2(N3CCCCC3)CCCCC2)c(OC)c1OC`, the inhibition was inactive: 23.5%.
On to `CC(C)(C)OC(=O)N1CCC(N(C(=O)c2ccccc2)c2ccc(F)cc2)CC1`, for which the inhibition is inactive: 10.1%.
Next, `O=C(NCC1(N2CCCCC2)CCCCC1)c1ccc(=O)[nH]c1`: inactive: 12.5%; `O=C(NCC1(N2CCCCC2)CCCCC1)c1cccs1`: inactive: 23.7%.
Next, `CSc1ccccc1C(=O)NCC1(N2CCCCC2)CCCCC1`: inactive: 9.26%.
Take `O=C(NCC1(N2CCCCC2)CCCCC1)c1ccc(Cl)nc1`: the inhibition was inactive: 21.3%.
For `Cc1cc(C)cc(N(C(=O)c2ccccc2)C2CCN(C(=O)OC(C)(C)C)CC2)c1` the value was inactive: 11.9%; for `O=C(NCC1(N2CCOCC2)CCCCC1)c1cc2ccccc2o1`, inactive: -2.26%; for `O=C(OC1CN2CCC1CC2)C1c2ccccc2Oc2ccccc21` (configuration not stated), inactive: -4.74%.
For `N#CC1(Nc2ccccc2)CCN(Cc2ccccc2)CC1` the value was inactive: 11.2%; for `O=C(NCC1(N2CCCCC2)CCCCC1)c1ccc(Cl)s1`, inactive: 11.2%.
As for `COc1ccc(Cl)cc1C(=O)NCC1(N2CCOCC2)CCCCC1`, the inhibition was inactive: 11.2%.
Take `CCOC(=O)N1CCC(Nc2ccc(OC)cc2)CC1`: the inhibition is inactive: 15.5%.
